Assay results taken from US6656972B2, “Control of pain with endogenous cannabinoids” (Neurosciences Research Foundation, Inc., priority 1998, dated 2003).
“Also recorded” adds a separate entry of the source.

Assay: Solubility in the injection vehicle (10% DMSO)
Conditions: 10% DMSO in saline

## N-[(1S)-endo-1,3,3-trimethyl bicyclo [2.2.1]heptan-2-yl]-5-(4-chloro-3-methylphenyl)-1-(4-methylbenzyl)-pyrazole-3-carboxamide [SR144528]
  solubility in the injection vehicle: not soluble; also recorded: limited solubility
